Source: paper PMC7181223, “A DyP-Type Peroxidase of Pleurotus sapidus with Alkene Cleaving Activity” (Molecules, 2020)

Substrate: CCn1c(=NN=c2sc3cc(S(=O)(=O)O)ccc3n2CC)sc2cc(S(=O)(=O)O)ccc21
Test: purified protein
Type: biochemical, Pleurotus sapidus
Settings: 100 µM H2O2, 25 mM MnSO4, optimal pH and temperature (pH 3.5, 40 °C)

B1: PsaPOX (DyP-type peroxidase of Pleurotus sapidus) (Pleurotus sapidus) (protein)
chain: MTTPAPPLDLNNIQGDILGGLPKKTETYFFFDVTNVDRFKANMTQFIPHVKTSAGIVKDREAIKEHKRQKRPGLVPMAAVNVSFSHLGLQKLGITDDLSDSSFTTGQRKDAEVLGDPGTKNGDTFTPAWEAPFLKDIHGVIFVAGDCHASVHKKLDEIKHIFGVGTSHASISEVTHVRGDVRPGQVSAHEHFGFLDGISNPAVDQFDQNPFPGQDSIRPGFILAKENGDSRAAARPDWAKDGSFLTFRYLFQMVPEFDDFLESNPIVLPGLSRKEGSELLGARIVGRWKSGAPIEITPLKDDPKLGADAQRNNNFDFGDSLVRGDQTKCPFAAHIRKTYPRNDLEGPPLNADIDNRRIIRRGIQFGPEVTSQEHHDKKTHHGRGLLFVCYSSSIDDGFHFIQQSWANAPNFPVNAVTSAGPIPPLDGVIPGFDAIIGQKVGGGIRQISGTNPNDPTTNITLPDQDFVIPRGGEYFFSPSISALKTKFAAGVASSAPQAQAPIST
notes: full-length ORF (1512 bp, 504 aa), C-terminal 6x His tag kept, S. cerevisiae alpha-factor secretion signal (pPIC9), Komagataella pfaffii GS115, Ni-NTA; monomeric; native peptides EGSELLGAR, DGSFLTFR, SGAPIEITPLKDDPK
Protein B1 has a kcat of 6.8 ± 0.2 s⁻¹.
